In US20260226037A1, “MICROTUBULE TARGETING AGENTS” (ARIEL SCIENTIFIC INNOVATIONS LTD., priority 2022, published 2026):

Test system: MM1.R cells
Assay: XTT cytotoxicity, MM1.R
Format: cell-based
Conditions: MM1.R / MM1.S
Description: The cytotoxic activity of the novel family was evaluated against various tumor cells, including myeloma cells, acute lymphoblastic leukemia cells, acute monocytic leukemia cells, chronic myelogenous leukemia cells, pancreatic cancer cells, breast cancer cells, uterine sarcoma cells, cervix adenocarcinoma cells, ovary cancer cells, melanoma cells, osteosarcoma cells, prostate cancer cells, lung cancer cells, neuroblastoma cells and colorectal adenocarcinoma cells by XTT assay.

| SMILES | IC50 ratio between resistant and non-resistant cells |
| --- | --- |
| CCCCCOC(=O)c1[nH]c2c(c1C)C(=O)CC(c1ccco1)C2 (centres unmarked) [SMS001, reference compound] | 1.095 |
| CCCCCOC(=O)c1[nH]c2c(c1C)C(=O)CC(c1ncco1)C2 (centres unmarked) [SMS077, pentyl 3-methyl-6-(oxazol-2-yl)-4-oxo-4,5,6,7-tetrahydro-1H-indole-2-carboxylate] | 1.091 |
